Data as given in doi:10.1101/2025.11.20.689572v1 (biorxiv, 2025).

Chains of the proteins cited; added tags and fusions are not shown. Lines headed by an entry give the natural chain unless they say otherwise; changes in a name come on top.
UniProt P11229: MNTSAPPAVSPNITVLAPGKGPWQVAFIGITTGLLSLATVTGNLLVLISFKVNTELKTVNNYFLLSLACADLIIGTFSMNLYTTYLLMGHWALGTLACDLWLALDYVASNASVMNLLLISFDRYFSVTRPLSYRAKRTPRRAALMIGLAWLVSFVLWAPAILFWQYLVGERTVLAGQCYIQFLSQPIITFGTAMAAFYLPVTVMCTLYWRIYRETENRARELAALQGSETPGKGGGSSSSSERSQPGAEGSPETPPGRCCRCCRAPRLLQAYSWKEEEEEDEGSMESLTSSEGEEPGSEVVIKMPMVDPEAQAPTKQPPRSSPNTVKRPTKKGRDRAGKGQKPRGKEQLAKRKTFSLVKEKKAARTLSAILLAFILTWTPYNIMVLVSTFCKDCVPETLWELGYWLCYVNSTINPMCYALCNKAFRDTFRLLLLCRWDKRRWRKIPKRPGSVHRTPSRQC

Molecular target: CHRM1 (Homo sapiens, UniProt P11229)
Assay: cell-based
Design: TRUPATH BRET2 G-protein dissociation; antagonist mode against agonist EC80
Details: HEK293, read-out: Xanomeline, Assay=Gq; agonist mode, % of control agonist

CCCCCCOc1nsnc1C1=CCCN(C)C1 [Xanomeline]
Emax: 101%
